We go through 1 molecule from the kinase profiling compilation of Christmann-Franck et al. (2016).

Protein sequences, listed by entry. Tags and fused reporters are not part of them. Lines headed by an entry give the natural chain unless they say otherwise; changes in a name come on top.
UniProt O43353, whole entry, looked up: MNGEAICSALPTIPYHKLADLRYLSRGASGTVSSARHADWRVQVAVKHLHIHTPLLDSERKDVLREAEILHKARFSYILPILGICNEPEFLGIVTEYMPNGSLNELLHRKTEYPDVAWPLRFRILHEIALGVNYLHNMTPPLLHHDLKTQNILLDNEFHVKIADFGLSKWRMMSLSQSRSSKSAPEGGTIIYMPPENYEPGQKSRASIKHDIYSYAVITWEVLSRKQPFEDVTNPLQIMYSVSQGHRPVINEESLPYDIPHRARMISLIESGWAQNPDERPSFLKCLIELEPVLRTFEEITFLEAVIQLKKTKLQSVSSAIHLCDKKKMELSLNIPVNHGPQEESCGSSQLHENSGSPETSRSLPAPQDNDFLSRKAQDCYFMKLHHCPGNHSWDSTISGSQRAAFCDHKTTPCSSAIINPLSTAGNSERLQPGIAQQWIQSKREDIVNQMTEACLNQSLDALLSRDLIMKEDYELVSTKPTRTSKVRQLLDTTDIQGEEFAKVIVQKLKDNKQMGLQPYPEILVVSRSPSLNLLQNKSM
UniProt Q6P2M8: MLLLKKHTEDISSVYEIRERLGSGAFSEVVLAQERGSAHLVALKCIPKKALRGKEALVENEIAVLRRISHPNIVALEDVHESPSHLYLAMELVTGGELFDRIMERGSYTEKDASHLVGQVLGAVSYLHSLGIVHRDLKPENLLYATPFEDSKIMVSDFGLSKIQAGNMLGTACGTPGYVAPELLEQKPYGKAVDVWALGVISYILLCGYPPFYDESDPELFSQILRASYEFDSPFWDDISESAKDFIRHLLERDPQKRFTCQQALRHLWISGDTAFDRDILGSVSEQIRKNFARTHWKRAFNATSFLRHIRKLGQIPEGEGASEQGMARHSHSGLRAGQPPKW
UniProt Q15831: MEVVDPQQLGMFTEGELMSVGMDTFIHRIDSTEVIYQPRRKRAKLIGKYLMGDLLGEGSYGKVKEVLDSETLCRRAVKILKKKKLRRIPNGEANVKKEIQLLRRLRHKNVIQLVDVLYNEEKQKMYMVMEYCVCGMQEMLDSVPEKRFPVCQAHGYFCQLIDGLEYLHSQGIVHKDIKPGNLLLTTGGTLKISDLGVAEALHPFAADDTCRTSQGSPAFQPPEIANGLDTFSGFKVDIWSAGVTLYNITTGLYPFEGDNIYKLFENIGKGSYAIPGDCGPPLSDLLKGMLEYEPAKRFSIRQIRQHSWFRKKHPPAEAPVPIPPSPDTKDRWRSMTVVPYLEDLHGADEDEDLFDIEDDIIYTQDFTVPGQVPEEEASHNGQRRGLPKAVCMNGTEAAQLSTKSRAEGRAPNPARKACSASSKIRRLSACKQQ
UniProt P49137, whole entry, looked up: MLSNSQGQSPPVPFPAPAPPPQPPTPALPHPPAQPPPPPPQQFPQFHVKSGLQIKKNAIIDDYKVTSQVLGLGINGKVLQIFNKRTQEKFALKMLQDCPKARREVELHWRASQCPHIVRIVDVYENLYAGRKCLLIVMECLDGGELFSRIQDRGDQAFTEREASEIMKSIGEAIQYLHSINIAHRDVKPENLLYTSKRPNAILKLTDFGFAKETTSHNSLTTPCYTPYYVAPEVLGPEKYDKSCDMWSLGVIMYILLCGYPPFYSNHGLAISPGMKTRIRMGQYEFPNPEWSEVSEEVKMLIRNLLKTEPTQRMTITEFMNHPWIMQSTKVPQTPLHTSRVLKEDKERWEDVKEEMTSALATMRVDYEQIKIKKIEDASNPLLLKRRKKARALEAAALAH
UniProt P53350, whole entry, looked up: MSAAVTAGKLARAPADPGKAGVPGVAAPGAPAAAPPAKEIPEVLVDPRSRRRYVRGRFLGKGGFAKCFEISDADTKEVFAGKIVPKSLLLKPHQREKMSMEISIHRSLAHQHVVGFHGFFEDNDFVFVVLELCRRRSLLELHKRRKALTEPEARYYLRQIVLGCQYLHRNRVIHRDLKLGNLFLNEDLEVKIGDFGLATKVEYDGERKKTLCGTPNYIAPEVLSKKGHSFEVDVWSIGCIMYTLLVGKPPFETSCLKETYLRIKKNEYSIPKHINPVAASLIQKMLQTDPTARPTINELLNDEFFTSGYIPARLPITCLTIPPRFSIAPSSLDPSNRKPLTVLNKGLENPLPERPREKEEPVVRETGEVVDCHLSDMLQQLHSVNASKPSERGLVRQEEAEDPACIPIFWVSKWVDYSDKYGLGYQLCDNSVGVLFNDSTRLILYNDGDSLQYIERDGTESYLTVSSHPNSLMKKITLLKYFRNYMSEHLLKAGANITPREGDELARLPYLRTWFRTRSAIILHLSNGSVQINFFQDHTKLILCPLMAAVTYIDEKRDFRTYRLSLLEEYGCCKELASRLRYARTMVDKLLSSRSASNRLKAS

Targets include RIPK2 (human) (UniProt O43353); MAP2K1 (human) (UniProt Q02750); PNCK (human) (UniProt Q6P2M8); STK11 (human) (UniProt Q15831); MAPKAPK2 (human) (UniProt P49137); PLK1 (human) (UniProt P53350).
Experiment in all cases: radiometric filter-binding kinase assay, Kinase HotSpot
Holding throughout (settings): compound 0.5 µM; ATP 10 µM

In the case of `CO[C@H]1[C@@H](OC)C[C@H](C)[C@@H](OC)C2=CC(=O)C=C(NC(=O)/C(C)=C\C=C/[C@H](OC)[C@@H](OC(N)=O)/C(C)=C\[C@@H]1C)C2=O`, the residual activity (commonly the signal under treatment as a percentage of the control signal) on RIPK2 (human) is 115%; at MAP2K1 (human), 99%; on PNCK (human), 98.5%; at STK11 (human) it was 102%; on MAPKAPK2 (human) it was 95.9%; at PLK1 (human), 99.5%.
